Measured values as given in patent US20120064513A1, “Cell Sensor, And Monitoring Method Using Same For The Real-Time Monitoring Of Cell Capacitance” (Industry-Acaddemic Cooperation Foundation, Yonsei …, priority 2009, published 2012).

Test system: 435 breast cancer cells overexpressing ErbB-2 (HER2/neu)
Assay: real-time monitoring of cell capacitance with the cell sensor, 435 breast cancer cells
Format: cell-based
Source text: The cell sensor 100 is connected to an LCR meter to measure capacitance, thereby monitoring potential changes of the cell 200 in real time. At this time, 10 mV of AC voltage at a frequency of 3 KHz is applied to the cell sensor 100. In this regard, the frequency of AC voltage applied to the cell sensor 100 may vary depending on the gap size between the first electrode 121 and the second electrode 122, and any frequency other than 3 KHz is also possible, as long as it is a low frequency.
A method for monitoring a cell condition in real time using the cell sensor according to the preferred embodiment of the present invention is as follows.
First, the aforementioned cell sensor is fabricated. The fabricated electrode is sterilized using autoclave equipment and ethanol, and then the well made of acryl or PDMS is attached on the electrode for cell culture.
Next, cells grown to a predetermined density are harvested with trypsin-EDTA, and introduced and attached onto the gap area between the electrodes using a pipette. […]
During the cell cultivation, capacitance between the first electrode and the second electrode is measured in real time, and thus endocytosis of the biomolecules into the cells through the cell surface receptor or adsorption is monitored in real time.

Q: “herceptin: antibody against ErbB-2 (HER2/neu), anticancer agent used for metastatic breast cancer, osteosarcoma or the like” was tested. Which initial capacitance peak did it give?
A: The initial capacitance peak was “peak similar to those in the virus and CAR-antibody treatment is observed”.

Q: What about the “concentration dependence of initial capacitance peak” value (different concentrations) of the same substance?
A: Its value is “initial peaks differ depending on the concentrations”.
